# Apparent affinities of Ab-14 variants for a coronavirus HR2 peptide

Data: MIT Lincoln Laboratory AlphaSeq set, Li et al. 2023, doi:10.1038/s41467-023-39022-2, as distributed in FLAb.

Target peptide (SARS-CoV-2 spike, HR2 region): PDVDLGDISGINAS

Parent: Ab-14, a human scFv built as VH, a 15-residue (Gly4Ser)3 linker, VL. Only the CDRs of the heavy chain vary.
VH: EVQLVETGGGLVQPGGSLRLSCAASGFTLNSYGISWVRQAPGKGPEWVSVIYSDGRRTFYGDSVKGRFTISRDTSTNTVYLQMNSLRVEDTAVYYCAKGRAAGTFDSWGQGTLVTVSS
VL: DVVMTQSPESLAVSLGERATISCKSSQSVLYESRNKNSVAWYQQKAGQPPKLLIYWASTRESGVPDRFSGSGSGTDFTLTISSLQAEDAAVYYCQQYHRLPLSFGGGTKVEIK

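The parent was found by panning a naive human phage display library on the peptide. Designed CDR sequences, proposed from the first random library and measured here. Their group label is 14H_GP_Gen (GP: Gaussian process model; Gen: genetic algorithm; a sequence that several methods proposed may carry one label only). Affinity was read by AlphaSeq, a pooled yeast mating assay with surface-displayed partners. After mating in shaken culture at 30 °C for 16 h, diploids were selected and their barcode pairs sequenced. Read counts were normalised to the haploid input and turned into Kd by a linear fit to BCL2-family pairs of known affinity, for each replicate. There are six technical replicates.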

Variants are written as CDR1, CDR2 and CDR3 of the heavy chain (limits as in the source). Parent: GFTLNSYGIS, VIYSDGRRTFYGDSVK, GRAAGTFDS. Affinities are written as log10 Kd with Kd in nM; a lower number is a better binder. The mean shown is taken over the replicates in which the pair was detected. "n.d." means that the variant was in the library but no mating with the target was seen in that replicate; the authors take this as a sign of poor binding, and no number exists. The authors averaged sequences with at least three values out of six and counted those with two or fewer as poor binders.

CDR-H1	CDR-H2	CDR-H3	log10 Kd, replicates	mean, log10 nM	signal with controls
GFGLNSYGIS	VIYSDGRRTAYGDSVK	GRTAGTFDS	-0.21 / -0.26 / -0.70 / -0.32 / -0.62 / -0.65	-0.46	0/18
GFSLNSYGIS	VIYADGRRTFYGDQVK	GKAAGTFDS	-0.02 / -0.19 / -0.73 / -0.31 / 2.52 / -0.02	0.21	0/18
GFTLNSYGIS	VIYSDGRRTFYGDSVK	GVEAGTFDT	0.30 / -0.24 / 0.40 / -0.29 / -0.04 / 0.68	0.14	0/18
GFELNSYGIS	VIYSDGRRTFYSDSVK	GAAAGTFDS	0.59 / 0.40 / 0.49 / 0.32 / 0.27 / 0.77	0.47	0/18
GFDLNSYGIS	VIYSDGRRTFYGDSVK	GWAAGTFDK	n.d. / 0.90 / 1.38 / n.d. / 0.86 / 1.36	1.12	0/18
GFDLNSYGIS	VIYSDGQRTFYKDSVK	GRTAGTFDS	-0.07 / -0.43 / -0.44 / -0.58 / -0.26 / -0.25	-0.34	0/18
GFDLNEYGIS	VIYSDGRRTFYGDSVK	GRQAGTFDS	0.07 / 0.42 / -0.15 / 0.05 / 0.53 / 0.18	0.18	1/18 (1.14)
GFQLNSYGIS	VIYSDGRRTFYQDSVK	GNAAGTFDS	1.10 / 0.16 / 1.34 / 0.31 / 1.11 / 1.50	0.92	0/18
GFDLNSYGIS	VIYSDGRRTFYVDSVK	GRHAGTFDS	1.07 / 1.32 / 1.06 / 0.96 / 0.68 / 1.16	1.04	0/18
MFDLNSYGIS	VIYSDGRRTFYGDSVK	GQEAGTFDS	1.38 / 1.94 / 2.43 / 1.60 / 1.46 / n.d.	1.76	1/18 (1.83)
GFQLNEYGIS	VIYSDGRRTFYGDSVK	GRNAGTFDT	0.81 / -0.15 / -0.03 / 0.00 / -0.23 / 0.73	0.19	0/18
GFELNTYGIS	VIYSDGRRTFYGDSVK	GEAAGTFDS	n.d. / n.d. / n.d. / n.d. / n.d. / n.d.	n.d.	0/18
GFSLNSYGIS	VIYSDGRRTFYKDNVK	GRTAGTFDS	0.99 / 0.09 / -0.11 / 0.74 / 0.51 / 0.53	0.46	0/18
GFELNSYGIS	VIYSDGRRTFYQDSVK	GRQAGTFDS	n.d. / 0.85 / n.d. / 0.60 / n.d. / -0.06	0.46	0/18
GFDLNSYGIS	VIYSDGRRTFYGDSVK	GNAAGTFDT	n.d. / n.d. / n.d. / n.d. / n.d. / n.d.	n.d.	0/18
MFDLNSYGIS	VIYSDGRRTFYADSVK	GKAAGTFDS	0.70 / 0.85 / 0.41 / 0.59 / 0.89 / 1.05	0.75	0/18
KFDLNSYGIS	VIYSDGRRTFYGDSVK	GRIAGTFDS	n.d. / 0.41 / 0.30 / 0.08 / 0.34 / 1.48	0.52	0/18
GFHLNSYGIS	VIYSDGRRTFYQDSVK	GREAGTFDT	0.48 / 1.41 / 0.56 / 1.55 / 0.28 / n.d.	0.86	0/18
GFDLNSYGIS	VIYSDGRRTFYQDSVK	GRQAGTFDA	0.17 / 0.12 / -0.14 / -0.04 / 0.33 / 0.20	0.11	1/18 (2.47)
GFSLNSYGIS	VIYSDGRRTFYGDSVK	GKTAGTFDW	n.d. / 2.72 / n.d. / n.d. / n.d. / n.d.	2.72	0/18
GFDLNSYGIS	VIYSDGRRTFYKDQVK	GQTAGTFDS	0.34 / 0.44 / 0.35 / 0.38 / 0.45 / 0.64	0.44	0/18
GFTLNSYGIS	VIYSDGQRTFYIDSVK	GNAAGTFDS	0.27 / 0.93 / 1.08 / 1.06 / 0.95 / 0.92	0.87	0/18
GFDLNSYGIS	VIYSDGRRTFYGDQVK	GRTAGTFDM	0.41 / 0.25 / 0.59 / 0.09 / 0.30 / 0.46	0.35	0/18
GFELNNYGIS	VIYSDGRRTFYGDSVK	GKTAGTFDS	n.d. / n.d. / n.d. / n.d. / n.d. / n.d.	n.d.	0/18
HFELNSYGIS	VIYSDGRRTFYADSVK	GRQAGTFDS	0.58 / 1.83 / 0.76 / 0.34 / 0.60 / 1.24	0.89	0/18
GFSLNEYGIS	VIYSDGRRTFYGDAVK	GRQAGTFDS	0.12 / -0.01 / -0.13 / -0.30 / -0.17 / -0.15	-0.11	0/18
MFDLNSYGIS	VIYSDGRRTFYGDSVK	GRTAGTFDS	1.27 / 2.98 / 1.42 / 1.22 / 2.06 / 1.85	1.80	0/18
GFDLNSYGIS	VIYSDGRRTFYGDMVK	GRIAGTFDS	0.55 / 0.29 / 0.51 / 0.42 / 0.60 / 0.59	0.49	1/18 (2.05)
GFGLNEYGIS	VIYSDGRRTFYGDSVK	GQAAGTFDV	-0.03 / 0.36 / 0.09 / 0.09 / 0.30 / 0.18	0.16	0/18
KFSLNSYGIS	VIYSDGRRTFYGDSVK	GWTAGTFDS	1.12 / n.d. / n.d. / n.d. / n.d. / n.d.	1.12	0/18
GFELNMYGIS	VIYSDGRRTFYADSVK	GKAAGTFDS	n.d. / n.d. / n.d. / n.d. / n.d. / n.d.	n.d.	0/18
GFDLNSYGIS	VIYSDGRRTFYGDSVK	GKTAGTFDK	0.14 / -0.10 / 0.48 / 0.39 / -0.49 / 0.23	0.11	0/18
GFTLNEYGIS	VIYSDGWRTFYGDSVK	GRTAGTFDK	0.95 / 1.19 / 2.42 / 3.14 / 2.51 / 2.21	2.07	1/18 (1.34)
GFSLNNYGIS	VIYSDGRRTAYGDSVK	GRAAGTFDS	0.58 / 1.04 / 0.60 / 0.83 / 0.55 / 1.59	0.86	0/18
GFWLNEYGIS	VIYSDGRRTFYGDSVK	GRHAGTFDT	n.d. / n.d. / n.d. / n.d. / n.d. / n.d.	n.d.	0/18
KFSLESYGIS	VIYSDGRRTFYGDSVK	GRTAGTFDS	n.d. / 1.58 / n.d. / n.d. / 1.29 / n.d.	1.43	0/18
GFELNSYGIS	VIYSDGRRTFYGDSVK	GRQAGTFDK	n.d. / 0.99 / 1.39 / 1.47 / 1.96 / 1.17	1.39	1/18 (2.12)
GFDLNSYGIS	VIYSDGRRTFYIDQVK	GRTAGTFDS	0.72 / 0.70 / 0.34 / 0.70 / 0.67 / 0.99	0.68	0/18
GFDLNSYGIS	VIYSDGRRTFYQDSVK	GRTAGTFDC	0.41 / 0.61 / 0.98 / -0.03 / 0.68 / 1.13	0.63	0/18
GFDLNSYGIS	VIYSDGRRAFYGDSVK	GRTAGTFDS	0.49 / 0.45 / 0.57 / -0.08 / 0.38 / -0.01	0.30	1/18 (1.82)

Repeated from above, the 5 best binders with a signal in all replicates:

CDR-H1,CDR-H2,CDR-H3,"log10 Kd, replicates","mean, log10 nM",signal with controls
GFGLNSYGIS,VIYSDGRRTAYGDSVK,GRTAGTFDS,-0.21 / -0.26 / -0.70 / -0.32 / -0.62 / -0.65,-0.46,0/18
GFDLNSYGIS,VIYSDGQRTFYKDSVK,GRTAGTFDS,-0.07 / -0.43 / -0.44 / -0.58 / -0.26 / -0.25,-0.34,0/18
GFSLNEYGIS,VIYSDGRRTFYGDAVK,GRQAGTFDS,0.12 / -0.01 / -0.13 / -0.30 / -0.17 / -0.15,-0.11,0/18
GFDLNSYGIS,VIYSDGRRTFYQDSVK,GRQAGTFDA,0.17 / 0.12 / -0.14 / -0.04 / 0.33 / 0.20,0.11,1/18 (2.47)
GFDLNSYGIS,VIYSDGRRTFYGDSVK,GKTAGTFDK,0.14 / -0.10 / 0.48 / 0.39 / -0.49 / 0.23,0.11,0/18

Of ten entries with the parent sequence, four were seen in most replicates (averages 0.34 to 2.37), three in one and three in none, so single entries are noisy. Empty control strains, which show no peptide, gave a signal in 1% of pairings with all heavy chain designs; the median was 2.08 and 95% of these signals were weaker than 0.84. No background was subtracted. For each scFv, signals with the empty controls are counted beside the result, with their mean in brackets. Values of this round are not directly comparable with the first-round values of the same sequences.